Test results as given in patent publication US5250538A, “Indole derivatives and their use” (Novo Nordisk A/S, priority 1990, dated 1993).

Protein sequences, listed by entry. Tags and fused reporters are not part of them.
UniProt P28564, whole entry: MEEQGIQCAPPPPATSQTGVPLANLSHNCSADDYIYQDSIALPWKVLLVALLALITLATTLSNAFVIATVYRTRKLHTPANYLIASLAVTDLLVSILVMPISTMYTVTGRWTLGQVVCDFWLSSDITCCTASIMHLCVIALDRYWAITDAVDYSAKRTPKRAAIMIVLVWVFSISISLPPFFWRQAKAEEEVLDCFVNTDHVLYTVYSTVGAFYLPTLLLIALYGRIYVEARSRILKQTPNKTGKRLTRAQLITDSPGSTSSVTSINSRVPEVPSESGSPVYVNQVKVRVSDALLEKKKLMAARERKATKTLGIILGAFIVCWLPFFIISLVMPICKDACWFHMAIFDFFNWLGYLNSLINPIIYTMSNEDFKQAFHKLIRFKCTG

Molecular target: T1, 5-HT1B (Rattus norvegicus, UniProt P28564)
T1 construct: from tissue
Assay: 5-HT1B receptor binding in vitro (3H-5-HT, 50 nM 8-OH-DPAT included)
Procedure: Compounds of the general formula (I) were tested for binding to 5-HT receptors and compared with known ligands by the following procedure:
Rat brain tissue (as specified in the table hereinafter) was homogenized using a Polytron homogenizer. The final pellet was resuspended in 125 vol (tissue wet weight) of buffer.
In all assays incubation was carried out for 10 min at 37° C.
Labelling of the 5-HT1B receptor was complicated by the fact that the available ligand ^3 H-5-HT is nonselective.
Detailed conditions for the receptor binding assay in vitro are tabulated below.

## CC1(C)CC(=O)N(CCCCN2CCN(c3ncccn3)CC2)C(=O)C1 [Gepirone, reference compound]
  IC50: > 1 µM
